PubChem BioAssay AID493244 (The Scripps Research Institute Molecular Screening Center, 2011)
The list shows a part of the results, in another mix than the full data. Some salts or complexes appear as unconnected parts, following the source record. Calls of active or inactive are those of the source.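 Rule for the calls: active = inhibition above the mean inhibition of all tested compounds plus 3 SD (cut at about 17% in these data); inactive = the rest.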

target: Troponin I, cardiac muscle (Homo sapiens) + Troponin T, cardiac muscle (Homo sapiens) + Troponin C, slow skeletal and cardiac muscles (Homo sapiens) (UniProt P19429+P45379+P63316); assay: calcium desensitizers of cardiac thin filaments – biochemical, IANBD-TnC fluorescence, EC70 calcium, primary screen (AID 493244); details: IANBD-labeled cardiac RTF, Ca2+ fluorescence; at 7.15 µM; hits give high values;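 note: assay run at fixed EC70 calcium of 1.6 mM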

Row | SMILES | inhibition
1 | CCc1ccc(OP(C)(=O)O)cc1 | inactive: 8.67%
2 | CP(=O)(Nc1ccccn1)Oc1ccccc1 (centres undefined) | inactive: -2.14%
3 | COc1ccccc1OP(C)(=O)Nc1ccc(C)cc1C (centres undefined) | inactive: -12%
4 | Cc1c(NP(C)(=O)Oc2ccc(C(C)C)cc2)c(=O)n(-c2ccccc2)n1C (centres undefined) | inactive: 5.65%
5 | O=[N+]([O-])c1cc([N+](=O)[O-])c(Nc2ccccn2)c([N+](=O)[O-])c1 | inactive: -9.92%
6 | CN(C)CCOC(=O)C(O)(c1ccccc1)C1CCCC1 (centres undefined) | inactive: -5.36%
7 | COc1ccc(OP(C)(=O)Nc2ccccn2)cc1 (centres undefined) | inactive: 4.19%
8 | COc1ccccc1OP(C)(=O)Nc1ccc(Br)cc1 (centres undefined) | inactive: 0.1%
9 | CCCCCCCCCCCCCCCC1C[N+](C)(C)CCOP(C)(=O)O1 (centres undefined) | inactive: 1.45%
10 | CP(=O)(Nc1ccc(Cl)cc1Cl)Oc1ccccc1 (centres undefined) | inactive: 16.2%
11 | CP(=O)(OCCOc1ccccc1)OCCOc1ccccc1 | inactive: -8.28%
12 | COc1ccc(OP(C)(=O)Nc2ccccc2Br)cc1 (centres undefined) | inactive: 3.83%
13 | COc1ccccc1OP(C)(=O)Nc1ccc(C)c(C)c1 (centres undefined) | inactive: 9.68%
14 | O=C1C(O)=C([N+](=O)[O-])C(=O)C(O)=C1[N+](=O)[O-] | inactive: 14.1%
15 | Cc1cc(C)cc(OP(C)(=O)Nc2cccc(C(F)(F)F)c2)c1 (centres undefined) | inactive: -0.41%
16 | CP(=O)(OC12CC3CC(CC(C3)C1)C2)OC12CC3CC(CC(C3)C1)C2 | inactive: 0.14%
17 | CCOC(=O)c1ccc(NP(C)(=O)Oc2ccc(Cl)cc2)cc1 (centres undefined) | inactive: 8.42%
18 | CN(C)C(=O)c1c([N+](=O)[O-])cc([N+](=O)[O-])cc1[N+](=O)[O-] | inactive: -3.93%
19 | CP(=O)(Nc1ccc(Cl)cc1)Oc1ccc(F)cc1 (centres undefined) | inactive: -10.7%
20 | COc1ccccc1OP(C)(=O)Nc1ccccc1Br (centres undefined) | inactive: -7.73%

Row | SMILES | inhibition
21 | CC(C)(C)c1ccc(OP(C)(=O)O)cc1 | inactive: -6.71%
22 | CP(=O)(Oc1ccccc1)N1CCOC1=O (centres undefined) | inactive: -0.18%
23 | CCc1ccc(OP(C)(=O)Nc2cccnc2)cc1 (centres undefined) | inactive: -3.69%
24 | COc1ccccc1OP(C)(=O)Nc1c(C)n(C)n(-c2ccccc2)c1=O (centres undefined) | inactive: -17.7%
25 | O=C(OCCCN1CCCC1)C(O)(c1ccccc1)C1CCCCC1 (centres undefined) | inactive: 7.89%
26 | CCN(CC)CC(O)COC(=O)C(O)(c1ccccc1)C1CCCCC1 (centres undefined) | inactive: 5.69%
27 | COc1ccc(OP(C)(=O)Nc2ccc(Br)cc2)cc1 (centres undefined) | inactive: -8.38%
28 | Cc1ccccc1NP(C)(=O)Nc1ccccc1C | inactive: -1.63%
29 | CP(=O)(Nc1ccc2c(c1)OCCO2)Oc1ccccc1 (centres undefined) | inactive: -13.4%
30 | CCOP(C)(=S)SCC(=O)NC(C)(CC)C(=O)O (centres undefined) | inactive: -13.9%
31 | CP(=O)(Nc1ccc(SC(F)(F)F)cc1)Oc1ccc(F)cc1 (centres undefined) | inactive: 0.74%
32 | Cc1c(C(c2ccc3c(c2)OCO3)c2c(C)n(C)n(-c3ccccc3)c2=O)c(=O)n(-c2ccccc2)n1C.O=[N+]([O-])c1cc([N+](=O)[O-])c(O)c([N+](=O)[O-])c1 | inactive: -0.29%
33 | O=[N+]([O-])c1cc([N+](=O)[O-])c(NCC2CCS(=O)(=O)C2)c([N+](=O)[O-])c1 (centres undefined) | inactive: -5.24%
34 | Cc1cc(-c2cccc3ccccc23)c(C)cn1.O=[N+]([O-])c1cc([N+](=O)[O-])c(O)c([N+](=O)[O-])c1 | inactive: -6.28%
35 | O=[N+]([O-])c1ccc(OP2(=O)COCCO2)cc1 (centres undefined) | inactive: -0.69%
36 | COc1ccc(NP(C)(=O)Oc2ccccc2OC)cc1 (centres undefined) | inactive: -4.27%
37 | CN(C)CCOC(=O)C(O)(c1ccccc1)C1CCCCC1 (centres undefined) | inactive: 1.64%
38 | COc1ccc(OP(C)(=O)Nc2cccc(Br)c2)cc1 (centres undefined) | inactive: -9.31%
39 | CCCCCOc1ccc(NP(C)(=O)Oc2ccc(Cl)cc2Cl)cc1 (centres undefined) | inactive: -7.98%
40 | O=[N+]([O-])c1cc([N+](=O)[O-])c(OC2CCCCC2O)c([N+](=O)[O-])c1 (centres undefined) | inactive: -7.14%

Row | SMILES | inhibition
41 | CP(=O)(Nc1ccccc1)Oc1ccc(F)cc1 (centres undefined) | inactive: -1.5%
42 | CCN(CC)CCCOC(=O)C(O)(c1ccccc1)C1CCCCC1 (centres undefined) | inactive: 3.4%
43 | Cc1c([N+](=O)[O-])cc([N+](=O)[O-])c(Br)c1[N+](=O)[O-] | inactive: -0.05%
44 | COc1ccc(OP(C)(=O)Nc2ccc(SC(F)(F)F)cc2)cc1 (centres undefined) | inactive: -7%
45 | CCOC(=O)c1ccc(NP(C)(=O)Oc2ccc(F)cc2)cc1 (centres undefined) | inactive: -8.07%
46 | COc1ccc2c(c1O)-c1c(O)c(OC)cc3c1[C@H](C2)[N+](C)(C)CC3.O=[N+]([O-])c1cc([N+](=O)[O-])c([O-])c([N+](=O)[O-])c1[O-] | inactive: -11.2%
47 | O=C(OCCN1CCN(CCOCc2ccccc2)CC1)C(O)(c1ccccc1)c1ccccc1 | inactive: -8.71%
48 | O=C(OC1CN2CCC1CC2)c1ccc([N+](=O)[O-])cc1 (centres undefined) | inactive: -3.47%
49 | CC(C)c1ccc(OP(C)(=O)Nc2ccc(SC(F)(F)F)cc2)cc1 (centres undefined) | inactive: 5.63%
50 | CP(=O)(Nc1ccccc1F)Oc1ccccc1 (centres undefined) | inactive: -2.17%
51 | Cc1cc(C)cc(OP(C)(=O)Nc2ccccn2)c1 (centres undefined) | inactive: -0.58%
52 | CP(=O)(Nc1cccc(Br)c1)Oc1ccccc1 (centres undefined) | inactive: -3.98%
53 | Cc1ccc(C)c(NP(C)(=O)Oc2ccccc2)c1 (centres undefined) | inactive: -1.04%
54 | Cc1cc(C)cc(OP(C)(=O)Nc2ccc(C)cc2C)c1 (centres undefined) | inactive: -4.95%
55 | CCOC(=O)c1ccc(NP(C)(=O)Oc2cc(C)cc(C)c2)cc1 (centres undefined) | inactive: -1.42%
56 | COc1ccccc1OP(C)(=O)Nc1cccc(Br)c1 (centres undefined) | inactive: -7.86%
57 | CC1=NCCc2c1[nH]c1ccccc21.O=[N+]([O-])c1cc([N+](=O)[O-])c(O)c([N+](=O)[O-])c1 | inactive: -6.61%
58 | O=C(O)c1cccc(Nc2c([N+](=O)[O-])cc([N+](=O)[O-])cc2[N+](=O)[O-])c1 | inactive: -11.6%
59 | CCCOc1ccc(NP(C)(=O)Oc2ccc(Cl)cc2)cc1 (centres undefined) | inactive: -4.76%
